Data published in article PMC8461249.

Amino acid sequences for entries named in this document (tags omitted). Residues count along the entry.
UniProt P37173, 23-166: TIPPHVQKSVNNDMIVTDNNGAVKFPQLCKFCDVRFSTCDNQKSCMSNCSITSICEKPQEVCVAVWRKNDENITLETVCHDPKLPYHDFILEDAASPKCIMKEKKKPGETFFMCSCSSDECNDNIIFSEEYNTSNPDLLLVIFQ

Target: TβRII-Fc (TβRII extracellular domain fused to human IgG1 Fc) (human) (UniProt P37173)
Assay: SPR; Biacore 3000, CM5 chip with anti-human Fc mixed with anti-mouse Fc antibodies; TβRII-SE/Fc or TβRII-Fc captured to 100–140 RU; TGF-β1, -β2 or -β3 injected at 0.4 to 30 nM, 50 μl/min, association 90 s, dissociation 300 s (900 s for slow rates); 0.1% surfactant; double referencing; 1:1 binding model; stoichiometry from Rmax and mass ratios

stoichiometry N (TGF-β dimer per bivalent Fc ligand): 1
Substance: TGF-β3 (ligand)
